Data from ChEMBL document CHEMBL6153053, “Synthesis and biological evaluation of novel pyrrolo[2,3-b]pyridine derivatives as potent GSK-3β inhibitors for treating Alzheimer's disease” (Eur J Med Chem, 2025).

The chains behind the UniProt entries cited, without tags or fusion partners. Where a name states a change or a piece, a line headed by the entry shows the natural chain unless it says otherwise.
UniProt P54646: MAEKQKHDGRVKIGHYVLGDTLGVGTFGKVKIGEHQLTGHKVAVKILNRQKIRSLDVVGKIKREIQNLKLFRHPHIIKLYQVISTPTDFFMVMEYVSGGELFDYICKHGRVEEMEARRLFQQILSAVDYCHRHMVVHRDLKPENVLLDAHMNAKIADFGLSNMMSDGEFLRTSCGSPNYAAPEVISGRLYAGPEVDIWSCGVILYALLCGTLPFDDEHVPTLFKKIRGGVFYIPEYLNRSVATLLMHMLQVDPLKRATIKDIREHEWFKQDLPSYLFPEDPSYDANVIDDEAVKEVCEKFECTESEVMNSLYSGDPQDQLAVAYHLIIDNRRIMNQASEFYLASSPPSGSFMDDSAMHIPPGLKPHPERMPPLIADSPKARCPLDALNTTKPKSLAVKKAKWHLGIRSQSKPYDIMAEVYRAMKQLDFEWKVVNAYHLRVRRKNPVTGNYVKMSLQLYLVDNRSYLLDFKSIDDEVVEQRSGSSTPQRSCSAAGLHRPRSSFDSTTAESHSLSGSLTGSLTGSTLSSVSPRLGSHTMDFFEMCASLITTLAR
UniProt P20248, whole entry, looked up: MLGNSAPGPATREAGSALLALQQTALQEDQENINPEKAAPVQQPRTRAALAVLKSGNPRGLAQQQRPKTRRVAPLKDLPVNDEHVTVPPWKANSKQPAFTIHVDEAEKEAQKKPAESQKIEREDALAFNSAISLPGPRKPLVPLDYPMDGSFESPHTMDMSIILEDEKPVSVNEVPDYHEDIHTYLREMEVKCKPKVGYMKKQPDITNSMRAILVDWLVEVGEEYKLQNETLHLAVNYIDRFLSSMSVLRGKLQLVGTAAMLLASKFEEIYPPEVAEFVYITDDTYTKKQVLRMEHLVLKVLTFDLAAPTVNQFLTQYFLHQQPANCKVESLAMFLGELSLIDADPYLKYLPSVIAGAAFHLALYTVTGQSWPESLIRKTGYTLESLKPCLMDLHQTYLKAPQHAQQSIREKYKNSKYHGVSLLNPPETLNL
UniProt P78396: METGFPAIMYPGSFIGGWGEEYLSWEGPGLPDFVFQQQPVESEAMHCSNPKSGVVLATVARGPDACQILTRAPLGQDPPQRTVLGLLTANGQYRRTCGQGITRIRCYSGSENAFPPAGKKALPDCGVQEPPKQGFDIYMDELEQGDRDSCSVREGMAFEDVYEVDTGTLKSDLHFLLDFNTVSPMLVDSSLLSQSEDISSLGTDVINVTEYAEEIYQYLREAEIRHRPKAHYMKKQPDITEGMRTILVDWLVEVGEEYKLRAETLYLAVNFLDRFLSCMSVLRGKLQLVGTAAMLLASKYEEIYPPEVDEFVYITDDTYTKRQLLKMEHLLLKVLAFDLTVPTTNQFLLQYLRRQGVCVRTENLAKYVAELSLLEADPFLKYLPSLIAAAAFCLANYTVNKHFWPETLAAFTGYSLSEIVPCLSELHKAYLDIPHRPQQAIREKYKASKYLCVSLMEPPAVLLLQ
UniProt P11802: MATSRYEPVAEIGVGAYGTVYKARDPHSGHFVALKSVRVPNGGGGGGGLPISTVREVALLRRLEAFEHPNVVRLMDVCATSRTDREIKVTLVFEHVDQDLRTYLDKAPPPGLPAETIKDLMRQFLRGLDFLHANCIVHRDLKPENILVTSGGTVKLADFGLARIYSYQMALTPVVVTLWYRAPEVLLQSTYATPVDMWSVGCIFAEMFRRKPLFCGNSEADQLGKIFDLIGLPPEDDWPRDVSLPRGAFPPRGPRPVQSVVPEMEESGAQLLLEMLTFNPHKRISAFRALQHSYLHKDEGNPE
UniProt P30281: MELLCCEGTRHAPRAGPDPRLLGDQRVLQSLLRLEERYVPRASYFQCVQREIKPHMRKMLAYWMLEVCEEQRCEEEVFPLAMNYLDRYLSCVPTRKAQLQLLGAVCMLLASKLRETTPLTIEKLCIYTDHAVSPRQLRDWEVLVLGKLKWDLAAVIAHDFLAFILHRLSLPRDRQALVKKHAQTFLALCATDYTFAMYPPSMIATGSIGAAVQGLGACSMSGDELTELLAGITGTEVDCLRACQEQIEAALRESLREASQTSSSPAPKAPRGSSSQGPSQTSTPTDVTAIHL
UniProt Q15078: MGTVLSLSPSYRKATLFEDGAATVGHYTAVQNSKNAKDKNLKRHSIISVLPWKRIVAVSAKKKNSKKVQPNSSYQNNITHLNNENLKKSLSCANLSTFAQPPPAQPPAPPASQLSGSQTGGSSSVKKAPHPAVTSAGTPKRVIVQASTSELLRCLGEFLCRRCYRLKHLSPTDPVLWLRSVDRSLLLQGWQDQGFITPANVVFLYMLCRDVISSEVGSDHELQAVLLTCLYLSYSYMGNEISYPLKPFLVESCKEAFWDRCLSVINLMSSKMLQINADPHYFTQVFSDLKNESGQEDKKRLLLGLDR
UniProt P67870, whole entry, looked up: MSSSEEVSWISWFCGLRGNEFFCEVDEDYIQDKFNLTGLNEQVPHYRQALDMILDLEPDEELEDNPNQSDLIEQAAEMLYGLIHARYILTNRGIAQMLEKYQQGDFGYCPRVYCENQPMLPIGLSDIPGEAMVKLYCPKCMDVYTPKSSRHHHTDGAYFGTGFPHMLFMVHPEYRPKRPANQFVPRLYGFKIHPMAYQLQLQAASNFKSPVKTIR
UniProt P68400, whole entry, looked up: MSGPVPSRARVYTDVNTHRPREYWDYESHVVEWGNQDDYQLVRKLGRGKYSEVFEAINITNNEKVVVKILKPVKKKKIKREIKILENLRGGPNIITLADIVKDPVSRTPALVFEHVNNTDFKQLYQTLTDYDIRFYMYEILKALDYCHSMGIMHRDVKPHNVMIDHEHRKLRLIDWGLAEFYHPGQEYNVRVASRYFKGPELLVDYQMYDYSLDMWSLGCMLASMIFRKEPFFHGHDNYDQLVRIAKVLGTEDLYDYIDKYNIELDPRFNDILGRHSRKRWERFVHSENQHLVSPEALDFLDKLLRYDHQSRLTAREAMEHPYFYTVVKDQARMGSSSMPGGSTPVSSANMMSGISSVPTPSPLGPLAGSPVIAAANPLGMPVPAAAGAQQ
UniProt P19784, whole entry, looked up: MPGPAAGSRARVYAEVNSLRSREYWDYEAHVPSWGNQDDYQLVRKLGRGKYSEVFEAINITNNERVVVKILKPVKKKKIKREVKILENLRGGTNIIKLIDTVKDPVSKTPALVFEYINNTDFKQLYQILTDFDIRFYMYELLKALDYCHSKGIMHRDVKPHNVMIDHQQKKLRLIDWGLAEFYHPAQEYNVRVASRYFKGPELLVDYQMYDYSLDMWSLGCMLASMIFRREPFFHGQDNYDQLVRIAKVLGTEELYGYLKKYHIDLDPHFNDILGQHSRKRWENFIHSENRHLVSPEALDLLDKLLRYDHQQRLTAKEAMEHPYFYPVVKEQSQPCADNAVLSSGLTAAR
UniProt Q8NEV1, whole entry, looked up: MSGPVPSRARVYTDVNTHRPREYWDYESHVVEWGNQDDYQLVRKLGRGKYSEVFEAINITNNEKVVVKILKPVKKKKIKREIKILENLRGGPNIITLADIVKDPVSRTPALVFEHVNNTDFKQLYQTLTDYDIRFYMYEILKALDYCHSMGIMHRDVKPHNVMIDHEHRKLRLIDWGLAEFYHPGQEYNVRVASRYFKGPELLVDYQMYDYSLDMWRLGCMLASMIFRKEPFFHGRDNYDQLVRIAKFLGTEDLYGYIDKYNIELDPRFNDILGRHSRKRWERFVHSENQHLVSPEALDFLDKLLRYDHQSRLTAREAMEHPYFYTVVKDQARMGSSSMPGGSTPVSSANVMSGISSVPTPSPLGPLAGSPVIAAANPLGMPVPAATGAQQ
UniProt P06239: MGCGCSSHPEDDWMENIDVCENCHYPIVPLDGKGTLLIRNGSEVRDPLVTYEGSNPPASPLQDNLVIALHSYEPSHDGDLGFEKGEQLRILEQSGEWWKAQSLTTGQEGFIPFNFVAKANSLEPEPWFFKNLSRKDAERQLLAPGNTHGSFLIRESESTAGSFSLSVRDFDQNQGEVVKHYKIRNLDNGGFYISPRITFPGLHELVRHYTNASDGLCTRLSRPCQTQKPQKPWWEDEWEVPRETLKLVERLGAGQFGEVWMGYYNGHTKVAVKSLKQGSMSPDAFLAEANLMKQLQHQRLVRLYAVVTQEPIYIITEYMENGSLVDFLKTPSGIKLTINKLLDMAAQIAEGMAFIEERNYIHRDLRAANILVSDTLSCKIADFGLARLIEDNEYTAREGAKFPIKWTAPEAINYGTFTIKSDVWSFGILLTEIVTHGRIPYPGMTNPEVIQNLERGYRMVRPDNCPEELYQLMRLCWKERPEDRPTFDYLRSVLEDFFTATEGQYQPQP
UniProt P28482, whole entry: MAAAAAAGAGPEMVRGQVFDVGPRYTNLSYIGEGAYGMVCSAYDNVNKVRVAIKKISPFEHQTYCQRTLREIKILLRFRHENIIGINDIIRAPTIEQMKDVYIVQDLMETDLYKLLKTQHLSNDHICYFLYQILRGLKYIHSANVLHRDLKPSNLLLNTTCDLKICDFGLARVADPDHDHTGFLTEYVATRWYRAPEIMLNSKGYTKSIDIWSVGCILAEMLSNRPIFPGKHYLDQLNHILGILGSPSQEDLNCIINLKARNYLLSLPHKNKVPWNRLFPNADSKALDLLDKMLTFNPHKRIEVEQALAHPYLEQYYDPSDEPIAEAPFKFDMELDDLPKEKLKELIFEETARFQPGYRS
UniProt P31749: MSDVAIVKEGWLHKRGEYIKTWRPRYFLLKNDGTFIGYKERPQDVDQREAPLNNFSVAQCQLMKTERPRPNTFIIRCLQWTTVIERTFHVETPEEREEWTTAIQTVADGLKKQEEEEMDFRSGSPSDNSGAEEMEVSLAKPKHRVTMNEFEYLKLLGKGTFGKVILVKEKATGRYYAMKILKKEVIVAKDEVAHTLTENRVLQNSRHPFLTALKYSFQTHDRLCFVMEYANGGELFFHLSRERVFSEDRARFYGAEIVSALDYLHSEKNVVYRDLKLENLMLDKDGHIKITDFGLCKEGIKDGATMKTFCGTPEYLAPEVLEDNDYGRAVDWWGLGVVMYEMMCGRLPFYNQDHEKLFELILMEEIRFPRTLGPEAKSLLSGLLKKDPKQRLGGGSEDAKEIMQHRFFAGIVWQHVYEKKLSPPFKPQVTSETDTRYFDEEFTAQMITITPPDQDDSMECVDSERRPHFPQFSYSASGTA
UniProt Q16539, whole entry: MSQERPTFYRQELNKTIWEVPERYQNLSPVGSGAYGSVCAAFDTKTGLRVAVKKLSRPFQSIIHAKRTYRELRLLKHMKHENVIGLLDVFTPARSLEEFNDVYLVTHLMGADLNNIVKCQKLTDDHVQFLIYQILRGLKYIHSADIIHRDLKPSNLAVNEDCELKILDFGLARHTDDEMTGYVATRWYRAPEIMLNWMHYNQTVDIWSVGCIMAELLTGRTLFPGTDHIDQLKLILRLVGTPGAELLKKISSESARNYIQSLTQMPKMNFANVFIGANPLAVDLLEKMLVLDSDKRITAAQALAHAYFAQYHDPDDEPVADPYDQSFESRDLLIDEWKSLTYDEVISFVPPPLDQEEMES
UniProt Q15759, whole entry: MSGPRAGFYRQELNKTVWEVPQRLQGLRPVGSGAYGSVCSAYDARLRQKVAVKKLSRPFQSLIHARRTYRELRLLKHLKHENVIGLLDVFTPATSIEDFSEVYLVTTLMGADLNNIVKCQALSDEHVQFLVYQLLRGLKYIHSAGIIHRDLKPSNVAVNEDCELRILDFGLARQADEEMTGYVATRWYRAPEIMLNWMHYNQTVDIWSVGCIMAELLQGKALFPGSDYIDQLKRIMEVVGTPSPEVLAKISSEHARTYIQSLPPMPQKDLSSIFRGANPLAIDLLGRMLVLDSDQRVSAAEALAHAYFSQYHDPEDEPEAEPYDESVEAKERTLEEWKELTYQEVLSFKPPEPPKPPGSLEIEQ

What was measured:
[1] = target: 5'-AMP-activated protein kinase catalytic subunit alpha-1 (Homo sapiens) (UniProt Q13131); experiment: Inhibition of human full length recombinant AMPKalpha-1 at 1.0 uM by Eurofins kinase assay relative to control; conditions: time 40.0 min
[2] = target: 5'-AMP-activated protein kinase catalytic subunit alpha-2 (Homo sapiens) (UniProt P54646); experiment: Inhibition of human AMPKalpha2 at 1.0 uM by Eurofins kinase assay relative to control
[3] = target: Cyclin-dependent kinase 2/cyclin A (Homo sapiens) (UniProt P24941+P20248+P78396); experiment: Inhibition of human CDK2/cyclinA at 1.0 uM by Eurofins kinase assay relative to control; type: protein-complex assay
[4] = target: CDK4/Cyclin D3 (Homo sapiens) (UniProt P11802+P30281); experiment: Inhibition of human CDK4/cyclinD3 at 1.0 uM by Eurofins kinase assay relative to control; type: protein-complex assay
[5] = target: Cyclin-dependent kinase 5/CDK5 activator 1 (Homo sapiens) (UniProt Q00535+Q15078); experiment: Inhibition of human CDK5/p35 at 1.0 uM by Eurofins kinase assay relative to control; type: protein-complex assay
[6] = target: T1, Serine/threonine-protein kinase Chk1 (Homo sapiens) (UniProt O14757); experiment: Inhibition of human CHK1 at 1.0 uM by Eurofins kinase assay relative to control
T1 sequence (whole entry): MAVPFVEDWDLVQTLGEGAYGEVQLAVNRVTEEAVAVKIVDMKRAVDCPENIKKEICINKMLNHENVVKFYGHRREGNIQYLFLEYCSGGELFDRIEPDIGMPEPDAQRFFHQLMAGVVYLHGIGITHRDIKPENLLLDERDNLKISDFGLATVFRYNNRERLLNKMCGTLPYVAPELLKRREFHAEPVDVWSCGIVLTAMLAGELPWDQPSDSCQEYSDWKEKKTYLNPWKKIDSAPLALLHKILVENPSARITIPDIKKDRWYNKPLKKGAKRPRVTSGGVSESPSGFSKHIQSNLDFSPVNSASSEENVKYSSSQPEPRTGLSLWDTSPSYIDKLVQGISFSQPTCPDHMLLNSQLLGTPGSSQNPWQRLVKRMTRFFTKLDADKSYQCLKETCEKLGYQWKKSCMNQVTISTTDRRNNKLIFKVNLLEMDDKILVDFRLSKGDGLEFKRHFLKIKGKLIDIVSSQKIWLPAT

[7] = target: Casein kinase 2 (Homo sapiens) (UniProt P67870+P68400+P19784+Q8NEV1); experiment: Inhibition of human CK2 at 1.0 uM by Eurofins kinase assay relative to control; type: protein assay
[8] = target: Tyrosine-protein kinase Lck (Homo sapiens) (UniProt P06239); experiment: Inhibition of human LCK at 1.0 uM by Eurofins kinase assay relative to control
[9] = target: Mitogen-activated protein kinase 1 (Homo sapiens) (UniProt P28482); experiment: Inhibition of human MAPK1 at 1.0 uM by Eurofins kinase assay relative to control
[10] = target: Ribosomal protein S6 kinase alpha-5 (Homo sapiens) (UniProt O75582); experiment: Inhibition of human MSK1 at 1.0 uM by Eurofins kinase assay relative to control
[11] = target: [Pyruvate dehydrogenase (acetyl-transferring)] kinase isozyme 1, mitochondrial (Homo sapiens) (UniProt Q15118); experiment: Inhibition of human PDK1 at 1.0 uM by Eurofins kinase assay relative to control
[12] = target: RAC-alpha serine/threonine-protein kinase (Homo sapiens) (UniProt P31749); experiment: Inhibition of human PKB-alpha at 1.0 uM by Eurofins kinase assay relative to control
[13] = target: Protein kinase C alpha type (Homo sapiens) (UniProt P17252); experiment: Inhibition of human PKC-alpha at 1.0 uM by Eurofins kinase assay relative to control
[14] = target: T2, MAP kinase-activated protein kinase 5 (Homo sapiens) (UniProt Q8IW41); experiment: Inhibition of human PRAK at 1.0 uM by Eurofins kinase assay relative to control
T2 sequence (whole entry): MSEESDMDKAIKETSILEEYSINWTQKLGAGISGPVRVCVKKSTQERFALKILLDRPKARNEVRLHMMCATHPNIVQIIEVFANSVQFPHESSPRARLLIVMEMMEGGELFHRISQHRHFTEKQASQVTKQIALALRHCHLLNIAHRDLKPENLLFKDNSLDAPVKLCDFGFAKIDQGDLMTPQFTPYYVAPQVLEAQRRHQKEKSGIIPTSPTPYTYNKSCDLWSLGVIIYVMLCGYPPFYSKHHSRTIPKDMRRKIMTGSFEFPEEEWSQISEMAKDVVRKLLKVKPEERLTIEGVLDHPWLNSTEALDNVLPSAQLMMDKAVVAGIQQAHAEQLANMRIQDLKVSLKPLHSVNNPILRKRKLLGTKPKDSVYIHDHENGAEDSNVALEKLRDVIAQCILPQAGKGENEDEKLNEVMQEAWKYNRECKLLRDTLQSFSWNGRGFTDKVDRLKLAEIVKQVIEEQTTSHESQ

[15] = target: Mitogen-activated protein kinase 14 (Homo sapiens) (UniProt Q16539); experiment: Inhibition of human SAPK2a at 1.0 uM by Eurofins kinase assay relative to control
[16] = target: Mitogen-activated protein kinase 11 (Homo sapiens) (UniProt Q15759); experiment: Inhibition of human SAPK2b at 1.0 uM by Eurofins kinase assay relative to control
[17] = target: T3, Mitogen-activated protein kinase 12 (Homo sapiens) (UniProt P53778); experiment: Inhibition of human SAPK3 at 1.0 uM by Eurofins kinase assay relative to control
T3 sequence (whole entry): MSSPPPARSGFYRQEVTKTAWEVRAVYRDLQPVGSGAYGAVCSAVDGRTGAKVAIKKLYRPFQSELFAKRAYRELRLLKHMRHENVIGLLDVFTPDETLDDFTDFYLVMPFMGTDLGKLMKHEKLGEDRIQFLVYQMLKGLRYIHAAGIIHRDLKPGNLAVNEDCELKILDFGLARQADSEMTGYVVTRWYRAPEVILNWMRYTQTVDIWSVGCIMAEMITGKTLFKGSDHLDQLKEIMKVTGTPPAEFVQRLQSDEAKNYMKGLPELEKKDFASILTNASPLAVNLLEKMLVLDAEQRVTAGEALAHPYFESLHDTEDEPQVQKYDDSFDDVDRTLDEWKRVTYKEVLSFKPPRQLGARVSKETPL

[18] = target: T4, Serine/threonine-protein kinase Sgk1 (Homo sapiens) (UniProt O00141); experiment: Inhibition of human SGK at 1.0 uM by Eurofins kinase assay relative to control
T4 sequence (whole entry): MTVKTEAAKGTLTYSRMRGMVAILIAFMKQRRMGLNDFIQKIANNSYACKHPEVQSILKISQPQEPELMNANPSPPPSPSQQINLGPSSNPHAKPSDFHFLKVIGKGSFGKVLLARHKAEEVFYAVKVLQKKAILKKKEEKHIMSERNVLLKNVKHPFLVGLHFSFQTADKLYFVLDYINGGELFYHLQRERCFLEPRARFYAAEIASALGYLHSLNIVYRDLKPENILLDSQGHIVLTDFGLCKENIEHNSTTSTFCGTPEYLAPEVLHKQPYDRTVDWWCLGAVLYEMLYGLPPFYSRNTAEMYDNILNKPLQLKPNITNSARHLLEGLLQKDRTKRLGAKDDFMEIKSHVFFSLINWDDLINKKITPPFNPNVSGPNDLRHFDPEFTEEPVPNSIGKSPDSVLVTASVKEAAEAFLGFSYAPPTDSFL

[19] = target: Glycogen synthase kinase-3 beta (Homo sapiens, UniProt P49841); experiment: Inhibition of GSK-3 beta in human SH-SY5Y cells assessed as reduction in Abeta-induced tau reduction in p-tau/GAPDH ratio at 20 mM preincubated for 1 hrs followed by A-beta (25 to 35) stimulation and measured after 6 hrs by Western blot analysis; type: cell-based; conditions: time 7.0 hrs

inhibition [1] | inhibition [2] | inhibition [3] | inhibition [4] | inhibition [5] | inhibition [6] | inhibition [7] | inhibition [8] | inhibition [9] | inhibition [10] | inhibition [11] | inhibition [12] | inhibition [13] | inhibition [14] | inhibition [15] | inhibition [16] | inhibition [17] | inhibition [18] | Ratio [19] | SMILES
111% | 99% | 22.5% | 84% | 24.5% | 82% | 94% | 72.5% | 91% | 46.5% | 87% | 102% | 83% | 126% | 98% | 102% | 98.5% | 85% | – | O=C(Nc1cnccc1-c1ccc2c(c1)OCO2)c1c[nH]c2ncc(C3=CC=CC(=S)C3)cc12
– | – | – | – | – | – | – | – | – | – | – | – | – | – | – | – | – | – | 11 | [Cl-].[Li+]
94% | 106% | 17% | 87.5% | 18% | 79% | 102% | 92.5% | 99% | 42% | 94% | 104% | 71% | 116% | 98.5% | 102% | 102% | 99% | – | O=C(Nc1cnccc1-c1ccc2c(c1)OCO2)c1c[nH]c2ncc(-c3ccccc3)cc12
108% | 102% | 27.5% | 96.5% | 21% | 75.5% | 90.5% | 84.5% | 104% | 92.5% | 92% | 106% | 35.5% | 113% | 96.5% | 107% | 102% | 97% | – | O=C(Nc1cnccc1N1CCOCC1)c1c[nH]c2ncc(-c3ccccc3)cc12
